Activity change, negative = inhibition data for one compound are collected here from PubChem BioAssay AID720522 (National Center for Advancing Translational Sciences (NCATS), 2013).

Chains of the proteins cited; added tags and fusions are not shown.
UniProt P08659, whole entry, looked up: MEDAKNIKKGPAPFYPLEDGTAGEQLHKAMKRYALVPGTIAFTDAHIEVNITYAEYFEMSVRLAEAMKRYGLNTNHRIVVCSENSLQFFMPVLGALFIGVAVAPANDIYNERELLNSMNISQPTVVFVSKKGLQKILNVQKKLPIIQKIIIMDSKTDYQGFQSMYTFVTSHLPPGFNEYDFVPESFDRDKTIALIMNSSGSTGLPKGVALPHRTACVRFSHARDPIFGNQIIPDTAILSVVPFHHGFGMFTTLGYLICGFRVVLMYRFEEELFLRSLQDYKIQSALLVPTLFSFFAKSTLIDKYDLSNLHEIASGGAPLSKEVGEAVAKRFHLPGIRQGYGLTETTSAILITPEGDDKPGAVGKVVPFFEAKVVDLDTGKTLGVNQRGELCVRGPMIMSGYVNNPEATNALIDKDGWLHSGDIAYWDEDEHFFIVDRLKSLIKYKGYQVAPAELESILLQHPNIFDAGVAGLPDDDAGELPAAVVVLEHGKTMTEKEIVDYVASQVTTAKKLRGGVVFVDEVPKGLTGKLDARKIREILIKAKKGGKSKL

The hits were mostly taken out for another list; the other results follow. Inconclusive results are not listed. Activity calls are given as the source filed them. Calls come from the whole dose curve; as a rule, active = well fitted inhibition curve with a large enough effect; inconclusive = small, poorly fitted or top-dose-only effect; inactive = flat fitted curve, though single readings scatter.
% is set by controls: 0 for no effect and ±100 for the full control effect.

For the assay, the target named is Luciferin 4-monooxygenase (Photinus pyralis) (UniProt P08659). Put plainly: Nrf2 qHTS screen for inhibitors: Purified Fluc Biochemical Counterscreen for Hit Validation. Note: nearly all actives have a fitted effect of over 65% in size. The settings on record: purified firefly luciferase, luminescence inhibition; at 57.5 µM (top of the series). The text has this:
Nrf2 is a transcription factor that maintains cellular redox homoestasis and protects cells from xenobiotics. Nrf2 binds to the antioxidant response element (ARE) to induce gene expression of a broad spectrum of genes that encode for antioxidants. […] Finding a small molecule that act as an inhibitor of Nrf2 function would represent a novel therapeutic target that could lead to improvement in survival of patients undergoing chemo- and/or radio- therapy.
A biochemical assay in 1536 well format was developed and utilized to remove compounds that inhibit the luciferase reporter (Fluc) rather than the Nrf2 enzyme. Inhibition of this assay = false positive inhibition of Nrf2.
NIH Chemical Genomics Center [NCGC]
NIH Molecular Libraries Probe Centers Network [MLPCN]
Assay Submitter (PI): Shyam Biswal, Johns Hopkins University
[1] Shibata T., et al., Genetic alteration of Keap1 confers constitutive Nrf2 activation and resistance to chemotherapy in gallbladder cancer. Gastroenterology, 2008.
[2] […]
Three microliter of substrate solution containing 50mM Tris acetate, 13.3 mM Mg-acetate, 0.01mM ATP, 0.01% Tween, 0.05% BSA and 0.01mM D-Luciferin (Sigma, #L9504) was dispensed into 1536 well white solid bottom assay plate (Greiner Bio, #789173-F). […] Luminescence signal was acquired using the PerkinElmer Viewlux plate reader after incubation at room temperature for 10 minutes.
Consider `N=C(N)c1ccc(OCCCCCOc2ccc(C(=N)N)cc2)cc1`, for which the activity change, negative = inhibition was inactive: 3.49%.
